Experiment [1] has as its target Carbonic anhydrase 7 (Homo sapiens, UniProt P43166).
In experiment [2] the target is Carbonic anhydrase 12 (Homo sapiens, UniProt O43570).

By UniProt entry, the sequences of proteins in these tests, tags left out. Where a name states a change or a piece, a line headed by the entry shows the natural chain unless it says otherwise.
UniProt P43166: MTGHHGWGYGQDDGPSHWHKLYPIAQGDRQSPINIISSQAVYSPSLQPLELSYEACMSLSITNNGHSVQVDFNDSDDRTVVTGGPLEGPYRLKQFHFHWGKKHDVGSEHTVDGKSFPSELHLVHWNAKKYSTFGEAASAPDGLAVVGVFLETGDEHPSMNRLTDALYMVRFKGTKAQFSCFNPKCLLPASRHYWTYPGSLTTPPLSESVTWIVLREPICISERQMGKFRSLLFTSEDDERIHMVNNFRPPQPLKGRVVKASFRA
UniProt O43570: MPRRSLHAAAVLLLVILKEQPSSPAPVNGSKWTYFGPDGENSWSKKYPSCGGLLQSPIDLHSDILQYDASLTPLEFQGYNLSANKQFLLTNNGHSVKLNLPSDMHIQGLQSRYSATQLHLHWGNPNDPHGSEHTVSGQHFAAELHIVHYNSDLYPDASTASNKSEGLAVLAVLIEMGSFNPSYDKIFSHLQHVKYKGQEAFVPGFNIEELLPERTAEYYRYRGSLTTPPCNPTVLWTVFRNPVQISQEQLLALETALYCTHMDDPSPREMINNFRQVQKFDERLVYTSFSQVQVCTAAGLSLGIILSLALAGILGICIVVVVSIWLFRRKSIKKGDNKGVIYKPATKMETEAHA

pKi: −log10 of the molar value.

Consider `NS(=O)(=O)c1cc(Cl)c(Cl)c(S(N)(=O)=O)c1` [DICHLORPHENAMIDE], for which the pKi in experiment [1] is 8.22; in experiment [2], 7.25.

In general, pKi refers to −log10 of the Ki, conventionally taken in molar units. A low value points to a high Ki.

These data come from ChEMBL document CHEMBL1144732 (Bioorg Med Chem Lett, 2008).
